The conditions of the data set: rats, lapatinib 100 mg/kg p.o. alone (IIL), plasma, M ± SD.

Our source for the t0.5 values is publication PMC6153549 (Investigational New Drugs, 2018).

With `CS(=O)(=O)CCNCc1ccc(-c2ccc3ncnc(Nc4ccc(OCc5cccc(F)c5)c(Cl)c4)c3c2)o1` [lapatinib, Lapatinib], the t0.5 is given as 9.22 ± 3.93 (42.6) h.
